Measurements from PubChem BioAssay AID1625 (Sanford-Burnham Center for Chemical Genomics, 2009).
Values joined by “and” are separate entries in the source; they are usually repeats but may differ in a detail not shown here. Identical values can stand only once. The list shows a part of the results, in another mix than the full data. Active and inactive are the calls of the source.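 The calls were made as follows: active = z-score above 3 at 5 µM with at least 500 cells counted in the well; inconclusive = wells under 500 cells, flagged as cytotoxic or low count; inactive = the rest.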

Assay: insulin promoter activators in MIN6 cells, imaging, high-content screening, mouse beta cells (AID 1625)
Conditions: MIN6 insulin promoter-GFP reporter, at 5 µM, stronger effect = higher value

| SMILES | z-score |
| --- | --- |
| Nc1ccc([As](=O)(O)c2ccc(N)cc2)cc1 | inactive: -0.15 |
| CCc1ccc(OP(C)(=O)Nc2cccnc2)cc1 (stereo unspecified) | inactive: 0.1 |
| CCc1nc2c(n1)c1c(non1O)c1c2no[n+]1[O-] | inactive: -0.23 |
| CP(=O)(Oc1ccccc1)N1CCOC1=O (stereo unspecified) | inactive: 0.68 |
| Cc1ccc(NP(=O)(Oc2ccccc2)Oc2ccccc2)nc1 | inactive: -0.03 |
| O=C(OCCCN1CCCC1)C(O)(c1ccccc1)C1CCCCC1 (stereo unspecified) | inactive: 0.48 |
| COc1ccccc1OP(C)(=O)Nc1c(C)n(C)n(-c2ccccc2)c1=O (stereo unspecified) | inactive: 0.33 |
| COc1ccc(OP(C)(=O)Nc2ccc(Br)cc2)cc1 (stereo unspecified) | inactive: 0.07 |
| COc1ccc(C2=NCC(CBr)S2)cc1 (stereo unspecified) | inactive: 0.22 |
| CCN(CC)CC(O)COC(=O)C(O)(c1ccccc1)C1CCCCC1 (stereo unspecified) | inactive: -0.04 |
| O=C(O)CNc1ccc([As](=O)(O)O)cc1 | inactive: -0.21 |
| O=[N+]([O-])c1cccc(NC2=NCC(CBr)S2)c1 (stereo unspecified) | inactive: -0.22 |
| O=[N+]([O-])c1ncn(CCn2ncnc2[N+](=O)[O-])n1 | inactive: 1.07 |
| CC(C)(C)C(=O)NC(Sc1ccncn1)C(Cl)(Cl)Cl (stereo unspecified) | inactive: 0.68 |
| CP(=O)(OC12CC3CC(CC(C3)C1)C2)OC12CC3CC(CC(C3)C1)C2 | inactive: 0.39 |
| O=C(Nc1cc([As](=O)(O)O)ccc1O)c1ccccc1 | inactive: 0.2 |
| CP(=O)(Nc1ccc(Cl)cc1Cl)Oc1ccccc1 (stereo unspecified) | inactive: 0.02 |
| CP(=O)(OCCOc1ccccc1)OCCOc1ccccc1 | inactive: 0.11 |
| Nc1cccc2ccc([As](=O)(O)O)cc12 | inactive: -1.47 |
| CCN(N=Nc1nonc1N)c1nonc1N | inactive: 0.06 |
| Cc1nc2ccc3ccccc3c2o1.O=[N+]([O-])c1cc([N+](=O)[O-])c(O)c([N+](=O)[O-])c1 | inactive: 1.56 |
| COc1ccc(OP(C)(=O)Nc2ccccc2Br)cc1 (stereo unspecified) | inactive: -0.42 |
| COc1ccccc1OP(C)(=O)Nc1ccc(C)c(C)c1 (stereo unspecified) | inactive: 0.84 |

| SMILES | z-score |
| --- | --- |
| Cc1ccc(NP(=O)(Oc2ccccc2F)Oc2ccccc2F)nc1 | inactive: 0.46 |
| Cc1cc(SC(NC(=O)c2ccc(F)cc2)C(Cl)(Cl)Cl)ncn1 (stereo unspecified) | inactive: -0.56 |
| CCOP(=O)(Nc1ccccc1)OCC | inactive: -0.31 and inactive: 0.07 |
| O=P(Nc1nc2ccc(Cl)cc2s1)(c1ccccc1)c1ccccc1 | inactive: -0.02 |
| Cc1cc(C)cc(OP(C)(=O)Nc2cccc(C(F)(F)F)c2)c1 (stereo unspecified) | inactive: -0.33 |
| CC(=O)Nc1ccc([As](=O)(O)O)cc1 | inactive: -0.79 |
| O=C(O)c1ccccc1[As](=O)(O)O | inactive: 2.48 |
| CCc1ccc(OP(C)(=O)O)cc1 | inactive: 0.84 |
| COc1ccccc1OP(C)(=O)Nc1ccc(C)cc1C (stereo unspecified) | inactive: 0.85 |
| CP(=O)(Nc1ccccn1)Oc1ccccc1 (stereo unspecified) | inactive: 1.29 |
| Cc1c2non([O-])c-2c(C)[n+](=O)[n+]1[O-] | inactive: 0.15 |
| Oc1ccccc1CNc1ccccn1 | inactive: 1.03 |
| Cc1c(NP(C)(=O)Oc2ccc(C(C)C)cc2)c(=O)n(-c2ccccc2)n1C (stereo unspecified) | inactive: 1.59 |
| O=[N+]([O-])c1cc([N+](=O)[O-])c(Nc2ccccn2)c([N+](=O)[O-])c1 | inactive: -0.47 |
| CN(C)CCOC(=O)C(O)(c1ccccc1)C1CCCC1 (stereo unspecified) | inactive: -0.27 |
| Clc1ccc(Cl)c(NC2=NCC(CBr)S2)c1 (stereo unspecified) | inactive: -0.2 |
| Cc1ccc(OP(=O)(Nc2nccs2)Oc2ccc(C)cc2)cc1 | inactive: -0.02 |
| COc1ccccc1OP(=O)(Nc1ccc(C)cn1)Oc1ccccc1OC | inactive: 0.1 |
| COc1ccc(OP(C)(=O)Nc2ccccn2)cc1 (stereo unspecified) | inactive: 0.54 |
| Cc1ccc(N/C(=N/P(=O)(N2CCOCC2)N2CCOCC2)N2CCOCC2)cc1 | inactive: -0.33 |
| COc1ccccc1OP(C)(=O)Nc1ccc(Br)cc1 (stereo unspecified) | inactive: 0.5 |
| NC(=O)c1cc([N+](=O)[O-])cc([N+](=O)[O-])c1N | inactive: -0.23 |
| CC(=O)Nc1ccc(Oc2c([N+](=O)[O-])cc([N+](=O)[O-])cc2[N+](=O)[O-])cc1 | inactive: 0.12 |

| SMILES | z-score |
| --- | --- |
| CC(=O)Nc1ccc([As](=O)(O)O)c(O)c1 | inactive: 0.28 |
| C[C@H]1OP(=O)(Oc2ccccc2)C[C@@H]2O[C@@H]21 (stereo partly specified) | inactive: 0.65 |
| C[C@@H]1C=CCP(=O)(Oc2ccccc2)O1 (stereo partly specified) | inactive: -0.09 |
| O=C(OCCN1CCN(CCOCc2ccccc2)CC1)C(O)(c1ccccc1)c1ccccc1 | inactive: 0.18 |
| O=C(OC1CN2CCC1CC2)c1ccc([N+](=O)[O-])cc1 (stereo unspecified) | inactive: 0.9 |
| CC(C)c1ccc(OP(C)(=O)Nc2ccc(SC(F)(F)F)cc2)cc1 (stereo unspecified) | inactive: -0.28 |
| CC(C)(C)C(=O)NC(Sc1ccccc1)C(Cl)(Cl)Cl (stereo unspecified) | inactive: -0.44 |
| CP(=O)(Nc1ccccc1F)Oc1ccccc1 (stereo unspecified) | inactive: 0.13 |
| CCOc1ccc(C2=NCC(CBr)S2)cc1 (stereo unspecified) | inactive: -0.43 |
| O=P1(Nc2nc3ccc(Cl)cc3s2)COc2ccccc2O1 (stereo unspecified) | inactive: 0.16 |
| CCCCCOc1ccc(NP(C)(=O)Oc2ccc(Cl)cc2Cl)cc1 (stereo unspecified) | inactive: -0.1 |
| CN(C)C(=O)Oc1noc2ccccc12 | inactive: 0.17 |
| Cc1ccccc1OP(=O)(Nc1ccccn1)Oc1ccccc1C | inactive: -0.06 |
| CP(=O)(Nc1ccccc1)Oc1ccc(F)cc1 (stereo unspecified) | inactive: 0.37 |
| Cc1ccc(OP(=O)(Nc2ccccn2)Oc2ccc(C)cc2)cc1 | inactive: 0.2 |
| CC(=O)NC(SC(=S)N(CC(C)C)CC(C)C)C(Cl)(Cl)Cl (stereo unspecified) | inactive: -0.43 |
| COC(=O)c1cc2c(s1)N=C(c1ccccc1)N(C)P2(=O)N1CCOCC1 (stereo unspecified) | inactive: -0.4 |
| COc1ccc(OP(C)(=O)Nc2ccc(SC(F)(F)F)cc2)cc1 (stereo unspecified) | inactive: -1.16 |
| CCOC(=O)c1ccc(NP(C)(=O)Oc2ccc(F)cc2)cc1 (stereo unspecified) | inactive: 0.35 |
| CCOC(=O)NC(Sc1ccccc1)C(Cl)(Cl)Cl (stereo unspecified) | inactive: -0.6 |
| Cc1ccc(NP(=O)(Oc2cccc(C)c2)Oc2cccc(C)c2)nc1 | inactive: 0.15 |
| c1ccc(-c2nn[nH]n2)c(-c2nn[nH]n2)c1 | inactive: -0.11 |
| O=C(NC1CCS(=O)(=O)C1)NP(=S)(Oc1ccccc1)Oc1ccccc1 (stereo unspecified) | inactive: -0.14 |

| SMILES | z-score |
| --- | --- |
| CCNC(=S)/N=C(\N)N[N+](=O)[O-] | inactive: -0.59 |
| O=C(OC1CN2CCC1CC2)c1cccc(Cl)c1 (stereo unspecified) | inactive: -0.3 |
| C(Cc1nn[nH]n1)Cc1nn[nH]n1 | inactive: 0.33 |
| Nc1ccc([As](=O)(O)c2ccc([N+](=O)[O-])cc2)cc1 | inactive: 0.48 |
| O=[N+]([O-])c1cc([N+](=O)[O-])c(NCC2CCS(=O)(=O)C2)c([N+](=O)[O-])c1 (stereo unspecified) | inactive: 2.12 |
| Cc1cc(-c2cccc3ccccc23)c(C)cn1.O=[N+]([O-])c1cc([N+](=O)[O-])c(O)c([N+](=O)[O-])c1 | inactive: 0.24 |
| O=[As](O)(c1ccccc1)c1ccc(O)cc1 | inactive: 0 |
| O=[N+]([O-])c1ncn(CCn2cnc([N+](=O)[O-])n2)n1 | inactive: -0.47 |
| O=[N+]([O-])c1ccc(OP2(=O)COCCO2)cc1 (stereo unspecified) | inactive: 0.05 |
| COc1ccc(NP(C)(=O)Oc2ccccc2OC)cc1 (stereo unspecified) | inactive: 0.27 |
| C[C@H]1OP(=O)(Oc2ccccc2)[C@H](O)[C@H](O)[C@H]1N=[N+]=[N-] (stereo partly specified) | inactive: 0.41 |
| O=P(Nc1nc2ccccc2s1)(c1ccccc1)c1ccccc1 | inactive: 0.45 |
| CN(C)CCOC(=O)C(O)(c1ccccc1)C1CCCCC1 (stereo unspecified) | inactive: -0.14 |
| O=P(Nc1ccccn1)(c1ccc(Br)cc1)c1ccc(Br)cc1 | inactive: 0.75 |
| COc1ccc(OP(C)(=O)Nc2cccc(Br)c2)cc1 (stereo unspecified) | inactive: -0.36 |
| Cc1ccccc1NP(C)(=O)Nc1ccccc1C | inactive: 0.48 |
| CP(=O)(Nc1ccc2c(c1)OCCO2)Oc1ccccc1 (stereo unspecified) | inactive: 0.39 |
| c1nnnn1CCn1cnnn1 | inactive: -1.04 |
| CCOP(C)(=S)SCC(=O)NC(C)(CC)C(=O)O (stereo unspecified) | inactive: 0.43 |
| O=P(Nc1nccs1)(c1ccccc1)c1ccccc1 | inactive: 0.21 |
| CC(C)C(=O)NC(Sc1ccccc1)C(Cl)(Cl)Cl (stereo unspecified) | inactive: -0.11 |
| CP(=O)(Nc1ccc(SC(F)(F)F)cc1)Oc1ccc(F)cc1 (stereo unspecified) | inactive: 0.02 |
